Sequences of proteins named here, by UniProt entry; tags and fusion partners are left off.
UniProt P93836, whole entry: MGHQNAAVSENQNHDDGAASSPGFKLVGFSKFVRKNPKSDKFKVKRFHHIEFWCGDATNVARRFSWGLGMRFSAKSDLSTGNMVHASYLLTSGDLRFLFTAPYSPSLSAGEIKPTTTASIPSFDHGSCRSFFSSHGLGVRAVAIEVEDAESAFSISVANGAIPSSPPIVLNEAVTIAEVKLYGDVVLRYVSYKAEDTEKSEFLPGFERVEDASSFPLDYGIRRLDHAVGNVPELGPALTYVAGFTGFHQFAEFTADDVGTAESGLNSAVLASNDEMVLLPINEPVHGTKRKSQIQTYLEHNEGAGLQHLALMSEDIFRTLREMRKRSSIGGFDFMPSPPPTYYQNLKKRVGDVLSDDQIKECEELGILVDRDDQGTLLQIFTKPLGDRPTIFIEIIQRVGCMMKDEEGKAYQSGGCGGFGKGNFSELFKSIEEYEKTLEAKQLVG

In paper PMC9459959, “Synthesis and Activity of 2-Acyl-cyclohexane-1,3-dione Congeners Derived from Peperomia Natural Products against the Plant p-Hydroxyphenylpyruvate Dioxygenase Herbicidal Molecular Target Site” (Plants, 2022):

Target: HPPD (p-hydroxyphenylpyruvate dioxygenase) (Arabidopsis thaliana, UniProt P93836)
Experiment: HPLC of homogentisate formed ([…] nm), dose-response
Conditions: read-out: I50app; 15 min incubation; slow tight-binding class; E. coli total soluble protein extract

Compound	IC50
O=C1CCCC(O)=C1C(=O)CCc1ccc2c(c1)OCO2	0.97 µM
CC1(C)CC(=O)C(C(=O)CCc2ccc3c(c2)OCO3)=C(O)C1	3.25 µM
